The text below walks through data of publication PMC12432435, “Not only an inhibitor: Trehalose enhances the catalytic action exerted on oxaloacetate by rabbit lactate dehydrogenase” (Protein Science : A Publication of the Protein Society, 2025).

This assay deals with Lactate dehydrogenase from rabbit skeletal muscle (LDH-A) (rabbit) (UniProt P13491). Kind of assay: ultrafiltration (100 kDa cutoff); 3 uM tetrameric enzyme, 125 uM beta-NADH, 50 mM Tris-HCl pH 7.5, without or with 4 or 6 mM oxaloacetate; Amicon Ultra 100 kDa cutoff, 15 s at 14,000 x g; protein in retentate and eluate by Bradford; tests dissociation of the tetramer.

“Lactate dehydrogenase from rabbit skeletal muscle (LDH-A) (from UniProt P13491 1-332) (enzyme)” registered a percent of total enzyme recovered in the retentate (100 kDa cutoff), with 4 mM oxaloacetate of 97%; a percent of total enzyme recovered in the retentate (100 kDa cutoff), with 6 mM oxaloacetate of 85%; a percent of total enzyme recovered in the retentate (100 kDa cutoff), without oxaloacetate of 98%.
